Molecular target: WT STING (Homo sapiens, UniProt Q86WV6, H232R)
Assay: 293T wt STING reporter assay
Type: cell-based
Design: host or cells: 293T (ATCC CRL-3216), stably transfected; also carries the 4xISRE firefly luciferase reporter
Details: 293T WT STING EC50, 293T wtSTING-FL cells, no digitonin, 7 h incubation, ISRE firefly luciferase reporter
Source text: Two complementary oligonucleotides of the sequence […] CTTGGAAAAC […] […] (SEQ ID NO: 1) and […] TCACTTTCCAAGATCTTT (SEQ ID NO:2) containing four interferon-sensitive response elements (ISRE) were synthesized by Sigma Aldrich (Czech Republic, Prague). The oligonucleotides were mixed in equal molar amounts, hybridized, and cleaved by restriction endonucleases HindIII (cat. #. R^0104S, NEB, Ipswich, USA) and BglII (cat. # R^0144S, NEB, Ipswich, USA). Ultimately, they were ligated into plasmid pGL4.27 (cat. # E6651, Promega, Madison, USA) linearized with the same enzymes. As a result, the sequence with four ISRE sites was placed upstream of the minimum promoter of firefly luciferase reporter gene.
293T cells (cat. # CRL-3216, ATCC, Manassas, USA) were seeded a day before transfection at density 125,000 cells per cm^2 onto poly-D-lysine (cat. # P6407, Sigma Aldrich, Czech Republic) coated six well plates in antibiotic free DMEM with high glucose (cat. # D5796, Sigma Aldrich, Czech Republic) supplemented with 10% heat inactivated FBS (cat. # S1520, Biowest, Riverside, USA). […]

Sequences of proteins named here, by UniProt entry; tags and fusion partners are left off.
UniProt Q86WV6, whole entry H232R: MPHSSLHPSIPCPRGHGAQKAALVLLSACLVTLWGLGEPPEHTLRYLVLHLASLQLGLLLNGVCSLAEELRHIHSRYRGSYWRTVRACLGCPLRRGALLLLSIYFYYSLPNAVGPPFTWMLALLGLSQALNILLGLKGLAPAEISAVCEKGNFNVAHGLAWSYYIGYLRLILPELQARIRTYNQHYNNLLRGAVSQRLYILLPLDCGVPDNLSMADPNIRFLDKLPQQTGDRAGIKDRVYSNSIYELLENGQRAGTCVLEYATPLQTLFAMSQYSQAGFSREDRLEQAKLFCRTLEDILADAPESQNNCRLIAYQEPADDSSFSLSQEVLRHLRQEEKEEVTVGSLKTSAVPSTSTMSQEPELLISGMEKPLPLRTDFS

Compound | EC50
CC(C)(C)C(=O)OCSP1(=O)OC[C@H]2O[C@@H](n3cnc4c(N)ncnc43)[C@H](F)[C@@H]2OP(=O)(SCOC(=O)C(C)(C)C)OC[C@H]2C[C@@H](n3cnc4c(=O)[nH]cnc43)[C@H](O1)[C@@H]2F (single isomer, unassigned) [Compound 129a] | 11 µM
CC(C)(C)C(=O)OCSP1(=O)OC[C@H]2O[C@@H](n3cnc4c(N)ncnc43)[C@H](F)[C@@H]2OP(=O)(SCOC(=O)C(C)(C)C)OC[C@H]2C[C@@H](n3cnc4c(=O)[nH]cnc43)[C@H](O1)[C@@H]2F (single isomer, unassigned) [Compound 129d] | 0.4 µM

Source: patent US20190359645A1, “2'3'-CYCLIC DINUCLEOTIDES COMPRISING CARBOCYCLIC NUCLEOTIDE” (Institute of Organic Chemistry and Biochemistry ASCR, V.V.I., priority 2018, published 2019)
